Measured values: patent US9296734B2 (AMGEN INC., priority 2013, dated 2016)

Amino acid sequences for entries named in this document (tags omitted). Residues count along the entry.
UniProt P56817, 46-501: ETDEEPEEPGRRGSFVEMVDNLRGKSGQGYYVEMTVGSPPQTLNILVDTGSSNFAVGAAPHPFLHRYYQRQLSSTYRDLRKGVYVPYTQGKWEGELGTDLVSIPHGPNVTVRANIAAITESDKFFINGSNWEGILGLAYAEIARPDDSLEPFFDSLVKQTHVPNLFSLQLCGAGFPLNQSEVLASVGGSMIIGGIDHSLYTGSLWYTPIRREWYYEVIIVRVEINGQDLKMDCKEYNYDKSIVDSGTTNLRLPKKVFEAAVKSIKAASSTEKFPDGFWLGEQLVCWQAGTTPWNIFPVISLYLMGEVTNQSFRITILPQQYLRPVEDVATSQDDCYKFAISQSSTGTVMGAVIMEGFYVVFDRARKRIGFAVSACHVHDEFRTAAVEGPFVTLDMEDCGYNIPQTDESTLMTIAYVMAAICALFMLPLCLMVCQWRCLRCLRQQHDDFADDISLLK

Legend:
[1] = target: Beta Secretase enzyme (BACE) (Homo sapiens (Human), UniProt P56817); assay: In vitro enzymatic BACE FRET assay; format: biochemical; conditions: read-out: BACE 1 FRET assay IC50
Method: In Vitro Enzymatic BACE FRET (Fluorescence Resonance Energy Transfer) Assay (Enzyme Assay Data in the Example Table I)
The assay buffer used in this screen is 0.05 M acetate, pH 4.2, 10% DMSO final, 100 uM genapol (which is a nonionic detergent, below its Critical Micelle Concentration). […] This assay is effectively started by the addition of FRET substrate (50 nM) and the combination is incubated for one hour. The FRET assay is terminated with by addition of Tris buffer, which raises the pH to neutrality, and the fluorescence is determined. The FRET substrate is a peptide with commercially available fluorophore and quencher, on opposite sides of the BACE cleavage site.

[2] = test system: Aβ40 in conditioned medium of cells stably expressing Amyloid Precursor Protein (APP); assay: In vitro BACE cell-based assay (Aβ40 sandwich ELISA); conditions: Homo sapiens
Method: In Vitro BACE Cell-Based Assay
The cell-based assay measures inhibition or reduction of Aβ40 in conditioned medium of test compound treated cells expressing amyloid precursor protein.
Cells stably expressing Amyloid Precursor Protein (APP) were plated at a density of 40K cells/well in 96 well plates (Costar). The cells were cultivated for 24 hours at 37° C. and 5% CO2 in DMEM supplemented with 10% FBS. The test compounds were then added to cells in 10-point dose response concentrations with the starting concentration being either 100 μM or 10 μM. The compounds were diluted from stock solutions in DMSO and the final DMSO concentration of the test compounds on cells was 0.1%. After 24 h of incubation with the test compounds the supernatant conditioned media was collected and the Aβ 40 levels were determined using a sandwich ELISA. The IC50 of the compound was calculated from the percent of control or percent inhibition of Aβ 40 as a function of the concentration of the test compound.
The sandwich ELISA to detect Aβ 40 was performed in 96 well microtiter plates, which were pre-treated with goat anti-rabbit IgG (Pierce). The capture and detecting antibody pair that were used to detect Aβ 40 from cell supernatants were affinity purified pAb40 (Biosource) and biotinylated 6E10 (Signet Labs Inc.), respectively. The optimal concentration for the pAb40 antibody was 3 μg/ml in Superblock/TBS (Pierce) that was supplemented with 0.05% Tween 20 (Sigma).
Cellular supernatants were incubated with the capture antibody for 3 h at 4° C., followed by 3 wash steps in TBS-tween (0.05%). The detecting antibody incubation was for 2 h at 4° C., again followed by the wash steps as described previously. The final readout of the ELISA is Time-Resolved Fluorescence (counts per minute) using Delfia reagents Streptavidin-Europium and Enhancement solutions (Perkin Elmer) and the Victor 2 multilabel counter (Perkin Elmer).

[3] = HEK293, average IC50, HEK cells, read-out: HEK cell assay IC50
[4] = HEK293, HEK cells, average, read-out: HEK cell assay IC50
[5] = average IC50, BACE enzyme assay
[6] = HEK293, average IC50, HEK cell assay, read-out: HEK cell assay IC50

| Structure (SMILES) | IC50 ([1]; average IC50) | IC50 [2, 3] | IC50 [1, 5] | IC50 [2, 6] | further results |
| --- | --- | --- | --- | --- | --- |
| NC1=N[C@](CF)(c2cc(NC(=O)c3ncc(Cl)cc3Cl)ccc2F)C[C@@H](C(F)(F)F)O1 [Example 58, N-(3-((4S,6S)-2-amino-4-(fluoromethyl)-6-(trifluoromethyl)-5,6-dihydro-4H-1,3-oxazin-4-yl)-4-fluorophenyl)-3,5-dichloropicolinamide] | 23 nM | 65.2 nM | – | – | – |
| COc1ccc(C(=O)Nc2ccc(F)c([C@]3(CF)C[C@@H](C(F)(F)F)OC(N)=N3)c2)nc1 [Example 49, N-(3-((4S,6S)-2-amino-4-(fluoromethyl)-6-(trifluoromethyl)-5,6-dihydro-4H-1,3-oxazin-4-yl)-4-fluorophenyl)-5-methoxypicolinamide] | 29 nM | 19.7 nM | – | – | – |
| Cc1cc(C(F)F)cnc1C(=O)Nc1cc(C)c(F)c([C@]2(CF)C[C@@H](C(F)(F)F)OC(N)=N2)c1 [Example 216, N-(3-((4S,6S)-2-amino-4-(fluoromethyl)-6-(trifluoromethyl)-5,6-dihydro-4H-1,3-oxazin-4-yl)-4-fluoro-5-methylphenyl)-5-(difluoromethyl)-3-methylpicolinamide] | – | – | – | – | IC50 ([1]; average): 94 nM; IC50 [2, 4]: 35 nM |
| N#Cc1cnc2c(Nc3ccc(F)c([C@]4(CF)C[C@@H](C(F)(F)F)OC(N)=N4)c3)ncc(F)c2c1 [Example 10, 8-((3-((4S,6S)-2-amino-4-(fluoromethyl)-6-(trifluoromethyl)-5,6-dihydro-4H-1,3-oxazin-4-yl)-4-fluorophenyl)amino)-5-fluoro-1,7-naphthyridine-3-carbonitrile] | 10.1 nM | 108 nM | – | – | – |
| NC1=N[C@](CF)(c2cc(NC(=O)c3cnc(OCc4ncco4)cn3)ccc2F)C[C@@H](C(F)(F)F)O1 [Example 46, N-(3-((4S,6S)-2-amino-4-(fluoromethyl)-6-(trifluoromethyl)-5,6-dihydro-4H-1,3-oxazin-4-yl)-4-fluorophenyl)-5-(oxazol-2-ylmethoxy)pyrazine-2-carboxamide] | – | – | 11 nM | 19 nM | – |
| C#CCOc1cnc(C(=O)Nc2ccc(F)c([C@]3(CF)C[C@@H](C(F)(F)F)OC(N)=N3)c2)cn1 [Example 35, N-(3-((4S,6S)-2-amino-4-(fluoromethyl)-6-(trifluoromethyl)-5,6-dihydro-4H-1,3-oxazin-4-yl)-4-fluorophenyl)-5-(prop-2-yn-1-yloxy)pyrazine-2-carboxamide] | – | – | 2.3 nM | 5.1 nM | – |
| NC1=N[C@](CF)(c2cc(NC(=O)c3ncc(C(F)(F)F)cc3Cl)ccc2F)C[C@@H](C(F)(F)F)O1 [Example 44, N-(3-((4S,6S)-2-amino-4-(fluoromethyl)-6-(trifluoromethyl)-5,6-dihydro-4H-1,3-oxazin-4-yl)-4-fluorophenyl)-3-chloro-5-(trifluoromethyl)picolinamide] | – | – | 74 nM | 88 nM | – |
| Cc1cc(OC(F)F)cnc1C(=O)Nc1cc(F)c(F)c([C@]2(C)C[C@@H](C(F)(F)F)OC(N)=N2)c1 [Example 174, N-(3-((4S,6S)-2-amino-4-methyl-6-(trifluoromethyl)-5,6-dihydro-4H-1,3-oxazin-4-yl)-4,5-difluorophenyl)-5-(difluoromethoxy)-3-methylpicolinamide] | – | – | – | – | IC50 ([1]; average): 29 nM; IC50 [2, 4]: 26 nM |
| C[C@@]1(c2cc(NC(=O)N3CCC(C(F)F)CC3)ccc2F)C[C@@H](C(F)(F)F)OC(N)=N1 [Example 122, N-(3-((4S,6S)-2-amino-4-methyl-6-(trifluoromethyl)-5,6-dihydro-4H-1,3-oxazin-4-yl)-4-fluorophenyl)-4-(difluoromethyl)piperidine-1-carboxamide] | – | – | 2450 nM | 826 nM | – |
| NC1=N[C@](CF)(c2cc(Nc3ncnc4cc(Cl)cnc34)ccc2F)C[C@@H](C(F)(F)F)O1 [Example 11, (4S,6S)-4-(5-((7-chloropyrido[3,2-d]pyrimidin-4-yl)amino)-2-fluorophenyl)-4-(fluoromethyl)-6-(trifluoromethyl)-5,6-dihydro-4H-1,3-oxazin-2-amine] | 27.2 nM | 63.5 nM | – | – | – |
| C[C@@]1(c2cc(Nc3ncc(F)c4cc(C#N)cnc34)cnc2F)C[C@@H](C(F)(F)F)OC(N)=N1 [Example 78, 8-((5-((4S,6S)-2-amino-4-methyl-6-(trifluoromethyl)-5,6-dihydro-4H-1,3-oxazin-4-yl)-6-fluoropyridin-3-yl)amino)-5-fluoro-1,7-naphthyridine-3-carbonitrile] | 61.3 nM | 64.1 nM | – | – | – |
| C[C@@]1(c2cc(NC(=O)c3ccc(Cl)cn3)cc(F)c2Cl)C[C@@H](C(F)(F)F)OC(N)=N1 [Example 236, N-(3-((4S,6S)-2-amino-4-methyl-6-(trifluoromethyl)-5,6-dihydro-4H-1,3-oxazin-4-yl)-4-chloro-5-fluorophenyl)-5-chloropicolinamide] | – | – | – | – | IC50 ([1]; average): 11 nM; IC50 [2, 4]: 39 nM |
| C[C@@]1(c2nc(Nc3ncc(F)c4cc(C#N)cnc34)ccc2F)C[C@@H](C(F)(F)F)OC(N)=N1 [Example 89, 8-((6-((4S,6S)-2-amino-4-methyl-6-(trifluoromethyl)-5,6-dihydro-4H-1,3-oxazin-4-yl)-5-fluoropyridin-2-yl)amino)-5-fluoro-1,7-naphthyridine-3-carbonitrile] | 188 nM | 383 nM | – | – | – |
| Cc1nc(OCC(F)(F)F)cnc1C(=O)Nc1ccc(F)c([C@]2(CF)C[C@@H](C(F)(F)F)OC(N)=N2)c1 [Example 38, N-(3-((4S,6S)-2-amino-4-(fluoromethyl)-6-(trifluoromethyl)-5,6-dihydro-4H-1,3-oxazin-4-yl)-4-fluorophenyl)-3-methyl-5-(2,2,2-trifluoroethoxy)pyrazine-2-carboxamide] | – | – | 49 nM | 325 nM | – |
| NC1=N[C@](CF)(c2cc(NC(=O)c3ccc(C#CC4CC4)cn3)cc(F)c2F)C[C@@H](C(F)(F)F)O1 [Example 158, N-(3-((4S,6S)-2-amino-4-(fluoromethyl)-6-(trifluoromethyl)-5,6-dihydro-4H-1,3-oxazin-4-yl)-4,5-difluorophenyl)-5-(cyclopropylethynyl)picolinamide] | – | – | 21 nM | 379 nM | – |
| Cc1cc(NC(=O)c2ccc(C(F)F)cn2)cc([C@]2(CF)C[C@@H](C(F)(F)F)OC(N)=N2)c1F [Example 221, N-(3-((4S,6S)-2-amino-4-(fluoromethyl)-6-(trifluoromethyl)-5,6-dihydro-4H-1,3-oxazin-4-yl)-4-fluoro-5-methylphenyl)-5-(difluoromethyl)picolinamide] | – | – | – | – | IC50 ([1]; average): 73 nM; IC50 [2, 4]: 33 nM |
| COc1cnc(C(=O)Nc2cnc(F)c([C@]3(C)C[C@@H](C(F)(F)F)OC(N)=N3)c2)cn1 [Example 70, N-(5-((4S,6S)-2-amino-4-methyl-6-(trifluoromethyl)-5,6-dihydro-4H-1,3-oxazin-4-yl)-6-fluoropyridin-3-yl)-5-methoxypyrazine-2-carboxamide] | – | – | 102 nM | 31 nM | – |
| NC1=N[C@](CF)(c2cc(Oc3ncccc3F)ccc2F)C[C@@H](C(F)(F)F)O1 [Example 94] | 398 nM | – | – | – | IC50 ([2]; HEK293, read-out: HEK cell assay IC50): 294 nM |
| C[C@@]1(c2cc(NC(=O)c3ccc(C#N)cn3)cnc2F)C[C@@H](C(F)(F)F)OC(N)=N1 [Example 62, N-(5-((4S,6S)-2-amino-4-methyl-6-(trifluoromethyl)-5,6-dihydro-4H-1,3-oxazin-4-yl)-6-fluoropyridin-3-yl)-5-cyanopicolinamide] | 52.3 nM | 28.6 nM | – | – | – |
| C[C@@]1(c2cc(NC(=O)N3CCc4ccccc4C3)ccc2F)C[C@@H](C(F)(F)F)OC(N)=N1 [Example 121, N-(3-((4S,6S)-2-amino-4-methyl-6-(trifluoromethyl)-5,6-dihydro-4H-1,3-oxazin-4-yl)-4-fluorophenyl)-3,4-dihydroisoquinoline-2(1H)-carboxamide] | – | – | 7530 nM | 687 nM | – |
| COc1ccc(C(=O)Nc2cc(C)c(F)c([C@]3(CF)C[C@@H](C(F)(F)F)OC(N)=N3)c2)nc1 [Example 229, N-(3-((4S,6S)-2-amino-4-(fluoromethyl)-6-(trifluoromethyl)-5,6-dihydro-4H-1,3-oxazin-4-yl)-4-fluoro-5-methylphenyl)-5-methoxypicolinamide] | – | – | – | – | IC50 ([1]; average): 44 nM; IC50 [2, 4]: 34 nM |

Where two headings read alike, the source gives them in different places.
